# Target: human mGluR2 receptor (Homo sapiens, UniProt Q14416)
# Amino acid sequences for entries named in this document (tags omitted). Residues count along the entry.
# UniProt Q14416, 19-872 limits assumed: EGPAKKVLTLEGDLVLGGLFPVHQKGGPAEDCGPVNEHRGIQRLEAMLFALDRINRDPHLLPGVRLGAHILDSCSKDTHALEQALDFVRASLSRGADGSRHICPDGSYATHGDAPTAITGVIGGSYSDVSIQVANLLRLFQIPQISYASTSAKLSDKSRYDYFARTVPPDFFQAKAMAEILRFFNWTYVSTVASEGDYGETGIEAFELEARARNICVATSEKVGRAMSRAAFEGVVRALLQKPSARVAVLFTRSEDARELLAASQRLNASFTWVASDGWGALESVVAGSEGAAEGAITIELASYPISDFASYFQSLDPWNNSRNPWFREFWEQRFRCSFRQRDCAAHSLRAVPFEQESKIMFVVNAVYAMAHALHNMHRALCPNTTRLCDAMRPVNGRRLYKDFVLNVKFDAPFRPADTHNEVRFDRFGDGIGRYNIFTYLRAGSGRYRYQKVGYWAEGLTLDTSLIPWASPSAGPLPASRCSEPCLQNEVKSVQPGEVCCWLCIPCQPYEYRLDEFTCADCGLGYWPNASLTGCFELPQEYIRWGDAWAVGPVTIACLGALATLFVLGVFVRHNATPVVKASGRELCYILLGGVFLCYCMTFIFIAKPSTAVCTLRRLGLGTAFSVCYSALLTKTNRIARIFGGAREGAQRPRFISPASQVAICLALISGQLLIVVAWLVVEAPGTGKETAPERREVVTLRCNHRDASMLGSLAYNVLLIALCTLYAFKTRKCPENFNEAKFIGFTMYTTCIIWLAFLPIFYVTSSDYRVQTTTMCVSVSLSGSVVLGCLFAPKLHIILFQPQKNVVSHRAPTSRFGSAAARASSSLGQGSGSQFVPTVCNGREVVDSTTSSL
# Assay: [35S]GTPγS binding assay (GTPγS-PAM): positive allosteric modulation in presence of glutamate at EC25, membranes from transfected CHO cells
# Conditions: in presence of mGluR2 agonist glutamate at predetermined EC25 concentration, averages of duplicate values of 11-concentration response curves
# Source text: The compounds provided in the present invention are positive allosteric modulators of mGluR2. These compounds appear to potentiate glutamate responses by binding to an allosteric site other than the glutamate binding site. The response of mGluR2 to a concentration of glutamate is increased when compounds of Formula (I) are present. Compounds of Formula (I) are expected to have their effect substantially at mGluR2 by virtue of their ability to enhance the function of the receptor. The behaviour of positive allosteric modulators tested at mGluR2 using the [^35S]GTPγS binding assay method described below and which is suitable for the identification of such compounds, and more particularly the compounds according to Formula (I), are shown in Table 4.
# [^35S]GTPγS Binding Assay
# The [^35S]GTPγS binding is a functional membrane-based assay used to study G-protein coupled receptor (GPCR) function whereby incorporation of a non-hydrolysable form of GTP, [^35S]GTPγS (guanosine 5′-triphosphate, labelled with […] ^35S), is measured. The G-protein o subunit catalyzes the exchange of guanosine 5′-diphosphate (GDP) by guanosine triphosphate (GTP) and on activation of the GPCR by an agonist, [^35S]GTPγS, becomes incorporated and cannot be cleaved to continue the exchange cycle (Harper (1998) Current Protocols in Pharmacology 2.6.1-10, John Wiley & Sons, Inc.). […] Here we describe the use of the [^35S]GTPγS binding assay using membranes from cells transfected with the human mGluR2 receptor and adapted from Schaffhauser et al ((2003) Molecular Pharmacology 4:798-810) for the detection of the positive allosteric modulation (PAM) properties of the compounds of this invention.
# CHO-cells were cultured to pre-confluence and stimulated with 5 mM butyrate for 24 hours, prior to washing in PBS, and then collection by scraping in homogenisation buffer (50 mM Tris-HCl buffer, pH 7.4, 4° C.). Cell lysates were homogenized briefly (15 s) using an ultra-turrax homogenizer. The homogenate was centrifuged at 23 500×g for 10 minutes and the supernatant discarded. The pellet was resuspended in 5 mM Tris-HCl, pH 7.4 and centrifuged again (30 000×g, 20 min, 4° C.). The final pellet was resuspended in 50 mM HEPES, pH 7.4 and stored at −80° C. in appropriate aliquots before use. Protein concentration was determined by the Bradford method (Bio-Rad, USA) with bovine serum albumin as standard.
# Measurement of mGluR2 positive allosteric modulators in membranes containing human mGluR2 was performed using frozen membranes that were thawed and briefly homogenised prior to pre-incubation in 96-well microplates (15 μg/assay well, 30 minutes, 30° C.) in assay buffer (50 mM HEPES pH 7.4, 100 mM NaCl, 3 mM MgCl2, 50 μM GDP, 10 μg/ml saponin,) with increasing concentrations of positive allosteric modulator (from 0.3 nM to 50 μM) and either a minimal pre-determined concentration of glutamate (PAM assay), or no added glutamate. For the PAM assay, membranes were pre-incubated with glutamate at EC25 concentration, i.e. a concentration that gives 25% of the maximal response glutamate, and is in accordance to published data (Pin et al. (1999) Eur. J. Pharmacol. 375:277-294). After addition of [^35S]GTPγS (0.1 nM, f.c.) to achieve a total reaction volume of 200 μl, microplates were shaken briefly and further incubated to allow [^35S]GTPγS incorporation on activation (30 minutes, 30° C.). The reaction was stopped by rapid vacuum filtration over glass-fibre filter plates (Unifilter 96-well GF/B filter plates, Perkin-Elmer, Downers Grove, USA) microplate using a 96-well plate cell harvester (Filtermate, Perkin-Elmer, USA), and then by washing three times with 300 μl of ice-cold wash buffer (Na2PO4.2H2O 10 mM, NaH2PO4.H2O 10 mM, pH=7.4). Filters were then air-dried, and 40 μl of liquid scintillation cocktail (Microscint-O) was added to each well, and membrane-bound [^35S]GTPγS was measured in a 96-well scintillation plate reader (Top-Count, Perkin-Elmer, USA). […]
row,SMILES,GTPgS - hR2 PAM pEC50
1,CC(C)CCn1ccc(-c2ccc(N3CCOCC3)c(O)c2)c(C#N)c1=O,5.9
2,CC(C)CCn1ccc(N2CCC3(CC2)CN(Cc2cccc(C(F)(F)F)c2)C3)c(C#N)c1=O,5.7
3,CC(C)CCn1ccc(Nc2cc(-c3ccccc3)no2)c(C#N)c1=O,6.3
4,COc1ccc(-c2ccn(CCC(C)C)c(=O)c2C#N)cn1,5.1
5,CC(C)CCn1ccc(N2CCC(N(C)Cc3cccc(C(F)(F)F)c3)C2)c(C#N)c1=O (centres unmarked),5.7
6,CC(C)CCn1ccc(-c2ccc3c(c2)OCCN3C)c(C#N)c1=O,6.7
7,CCCCn1ccc(-c2ccc3c(cnn3Cc3cccnc3)c2)c(C#N)c1=O,6.0
8,CC(C)CCn1ccc(N2CCC3=C(Cc4ccc(F)cc43)C2)c(C#N)c1=O,6.7
9,CC(C)CCn1ccc(N(C)C2CN(C(c3ccccc3)c3ccccc3)C2)c(C#N)c1=O,6.7
10,CC(C)CCn1ccc(OCc2ccc(OC(F)(F)F)cc2)c(C#N)c1=O,6.9
11,CC(C)CCn1ccc(-c2ccc(CCCO)nc2)c(C#N)c1=O,5.2
12,CC(C)CCn1ccc(-c2ccc3nn(Cc4ccncc4)cc3c2)c(C#N)c1=O,5.6
13,CC(C)CCn1ccc(-c2ccc3c(ccn3C)c2)c(C#N)c1=O,6.9
14,CC(C)CCn1ccc(-c2cnn(Cc3ccccc3)c2)c(C#N)c1=O,6.3

# Source: patent US9266834B2, “1, 4-disubstituted 3-cyano-pyridone derivatives and their use as positive allosteric modulators of MGLUR2-receptors” (JANSSEN PHARMACEUTICALS, INC., priority 2006, dated 2016)
